High-throughput results (PubChem)
A selection: hits, their analogues and other compounds. The true share with any hit is near 16%.
TDP1 cell CPT: growth inhibition of DT40 Tdp1-/-;hTDP1 cells with camptothecin (screen for TDP1 inhibitors) | 420,000 compounds, 12% hits | Potency, µM (highest dose often 46.2 µM), for the others: at the highest dose activity change, negative = growth inhibition, actives largely listed as inhibitors | chicken DT40 Tdp1-/-;hTDP1 cells + 20 nM CPT, ATP luminescence, 48 h | AID 686979; also: potency is read from the fitted curve at half-maximal effect; % is scaled to controls: 0 for no effect and ±100 for the full control effect; nearly all actives have a fitted effect of over 55% in size
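Chicken DT40 Tdp1-/- cells stably complemented with human TDP1 were seeded at 400 cells/well in medium containing 20 nM camptothecin, exposed to pin-transferred compounds, and grown at 37 °C for at least 48 hr. Viability was read as ATP luminescence.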
DT40 TDP1 no CPT: qHTS for Inhibitors of human tyrosyl-DNA phosphodiesterase 1 (TDP1): qHTS in cells in absence of CPT | Potency, µM (doses to about 46.2 µM), for inactives: at the top dose activity change, negative = growth inhibition, hits mostly inhibitors | 420,000 compounds, 15% hits | DT40 Tdp1-/- hTDP1 cells, no CPT, ATP luminescence, 48 h; also: potency is read from the fitted curve at half-maximal effect; % is scaled to controls: 0 for no effect and ±100 for the full control effect; nearly all actives have a fitted effect of over 55% in size
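Seeded 400 DT40-hTDP1 cells/well (vehicle DMSO, no 20 nM CPT); pinned compounds; ≥48 hr at 37 °C; CellTiter-Glo luminescence as viability measure.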
uPA generation: cell surface uPA generation inhibition; Potency, µM (doses to about 38.3 µM), for the others: at the top dose activity change, negative = inhibition, most hits filed as inhibitors; 330,000 compounds, 0.31% hits; AID 540303; cell surface uPA generation assay, qHTS; active = well fitted inhibition curve with a large enough effect; inconclusive = small, poorly fitted or top-dose-only effect; inactive = no such curve, though single readings can be large or run the other way; tested in mouse RAW 264.7 cells; also: potency is read from the fitted curve at half-maximal effect; % is scaled to controls: 0 for no effect and ±100 for the full control effect; nearly all actives have a fitted effect of over 55% in size
TDP1 block: inhibitors of human tyrosyl-DNA phosphodiesterase TDP1 | Q9NUW8 | recombinant TDP1, AlphaScreen DNA substrate cleavage | Potency, µM (highest dose often 130 µM), for inactives: at the highest dose activity change, negative = inhibition, hits mostly inhibitors | 350,000 compounds, 0.28% hits | AID 485290; also: potency is read from the fitted curve at half-maximal effect; % is scaled to controls: 0 for no effect and ±100 for the full control effect; nearly all actives have a fitted effect of over 40% in size
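Steps: enzyme plus compound, 15 min RT; add biotin/phosphotyrosine-FITC oligonucleotide (15 nM final), react 5 min; add donor/acceptor beads (10 ug/ml final), 10 min; read AlphaScreen. Tdp1 at 1 nM final.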
miR-21 FLuc: raises the signal of a miR-21 reporter; HeLa miR-21 FLuc reporter, luciferase, 48 h; Potency, µM (top dose mostly 38.3 µM), for inactives: at the highest dose reporter change, positive = more light; AID 2288; 340,000 tested, under 10 active; active = well fitted rising curve with a large enough effect; inconclusive = small, poorly fitted or top-dose-only effect; inactive = no such curve, though single readings can be large or run the other way;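 note: % of control where 0% means no effect; miR-21 action dims this reporter so a rising signal means less miR-21 action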
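Using DMEM plus 10% FBS, HeLa miR-21-FLuc cells are incubated with test compounds (final up to about 40uM) for 48 hours; firefly luciferase signal is then imaged following reagent-mediated lysis.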
An asterisk follows results filed as active; u = inconclusive; x = not tested or not shown; [ ] = dose if it differs, or a comment. Unless noted, calls follow the shape of the dose curve; as a rule, active = well fitted curve in the direction sought with a large enough effect; inconclusive = small, poorly fitted or top-dose-only effect, or another doubt; inactive = no such curve, though single readings can be large; an effect the other way counts as inactive or inconclusive.

Assay codes: A = TDP1 cell CPT; B = DT40 TDP1 no CPT; C = uPA generation; D = TDP1 block; E = miR-21 FLuc
structure: O=C(NCc1ccco1)C1CC(c2c(Cl)cccc2Cl)=NO1 (stereo not given)
  A: u | B: 16.4µM* | C: u | D: 4.0% | E: 17.2%

structure: O=C(NCc1cccc(Br)c1)C1CC(c2ccccc2C(F)(F)F)=NO1 (stereo not given)
  A: u | B: 18.4µM* | C: u | D: 1.2% | E: 28.6%

structure: O=C(NCc1cccc(Br)c1)C1CC(c2cc(C(F)(F)F)cc(C(F)(F)F)c2)=NO1 (stereo not given)
  A: -33.0% | B: -7.4% | C: 17.2% | D: x | E: x

structure: O=C(NCc1cccc(C(F)(F)F)c1)C1CC(c2c(Cl)cccc2Cl)=NO1 (stereo not given)
  A: 16.4µM* | B: 16.4µM* | C: u | D: -2.0% | E: 16.3%

structure: O=C(NCc1ccco1)C1CC(c2ccc(Cl)c(Cl)c2)=NO1 (stereo not given)
  A: 13µM* | B: 8.2µM* | C: u | D: 0.0% | E: 0.0%

structure: O=C(NCc1ccc(C(F)(F)F)cc1)C1CC(c2cccc(F)c2)=NO1 (stereo not given)
  A: u | B: -28.1% | C: -2.4% | D: -1.2% | E: 13.0%

structure: COc1ccccc1CNC(=O)C1CC(c2c(Cl)cccc2Cl)=NO1 (stereo not given)
  A: -26.0% | B: -29.2% | C: -8.8% | D: 5.9% | E: -9.6%

structure: Cc1ccccc1N(CC(=O)O)S(C)(=O)=O
  A: -6.3% | B: -7.9% | C: 0.1% | D: 5.2% | E: -6.1%

structure: Cc1ccc(-n2c(N)c(C(=O)N3CCN(C)CC3)sc2=S)cc1
  A: u | B: -20.4% | C: 0.0% | D: 3.4% | E: -6.3%

structure: CC(C)C(=O)Nc1ncc2c(n1)CC(c1cccs1)CC2=O (stereo not given)
  A: -15.7% | B: -10.5% | C: 10.4% | D: 2.5%[56.1 µM] | E: -9.1%

structure: O=C(/C=C/c1c(Cl)cccc1Cl)NCc1ccco1
  A: u | B: 5.8µM* | C: -2.6% | D: 1.1% | E: -44.8%

structure: CCOc1cc(/C=N/O)ccc1OCc1ccc(C)cc1
  A: u | B: 23.1µM* | C: -5.2% | D: 0.0% | E: -27.6%

structure: O=[N+]([O-])c1ccccc1S(=O)(=O)c1ccccc1
  A: -23.6% | B: 17.0% | C: 16.4% | D: x | E: 4.5%

structure: CNc1ccc(Cl)cc1S(=O)(=O)c1ccccc1[N+](=O)[O-]
  A: -58.3% | B: 14.6µM* | C: x | D: x | E: x

structure: Cc1ccc(CCNC(=O)c2cc3c(=O)oc4ccccc4c3s2)cc1
  A: -1.7% | B: 2.3% | C: x | D: 0.0% | E: 0.8%

structure: c1ccc(C(Cc2nc(-c3ccncc3)no2)c2ccccc2)cc1
  A: 18.4µM* | B: u | C: -6.5% | D: -4.5% | E: 15.5%

structure: c1ccc(-c2nc(-c3ccncc3)no2)cc1
  A: -19.9% | B: -18.9% | C: 5.4% | D: 2.0% | E: -50.9%

structure: N#Cc1nc(Cc2cccc3ccccc23)oc1N1CCC(C(N)=O)CC1
  A: 7.4% | B: -10.0% | C: 1.3% | D: 6.1% | E: -15.1%

structure: Cc1c(Cl)ccc2c(C(=O)NCCCn3nccc3C)cc(-c3ccccn3)nc12
  A: 20.6µM* | B: u | C: 1.7% | D: 1.0% | E: 2.7%

structure: Cc1c(Cl)ccc2c(C(=O)NCCN3CCCCC3)cc(-c3ccccn3)nc12
  A: u | B: 9.2µM* | C: -4.6% | D: 0.0% | E: -5.0%

structure: Cc1cc(C)c2nc(-c3ccccn3)cc(C(=O)NCc3cc(C)n(C)n3)c2c1
  A: -18.2% | B: u | C: 1.1% | D: 0.0% | E: -6.4%

structure: COc1ccccc1-c1cc(C(=O)NC2CCN(C)CC2)c2ccc(Cl)c(C)c2n1
  A: 11.6µM* | B: 20.6µM* | C: 0.0% | D: 1.3% | E: -5.1%

structure: CCCn1c(=O)c(C(=O)Nc2ccccc2)c(O)c2ccccc21
  A: u | B: u | C: 1.0% | D: 3.3% | E: -7.6%

structure: CC(C)Cn1c(=O)c(C(=O)Nc2ccncc2)c(O)c2ccccc21
  A: 2.91µM* | B: 4.11µM* | C: -3.2% | D: x | E: x

structure: CC(C)Cn1c(=O)c(C(=O)Nc2cnccn2)c(O)c2ccccc21
  A: u | B: 25.9µM* | C: 1.4% | D: 4.7% | E: 7.2%

structure: O=C(COc1cccc2c1CCN(Cc1ccccc1)C2=O)N1CCCCC1
  A: 0.1% | B: u | C: 4.1% | D: -2.5% | E: 14.1%

structure: Cc1ccc(C)c(NC(=O)Cn2nnc(C(=O)Nc3c(C)cccc3C)c2N)c1
  A: -6.0% | B: -5.2% | C: 1.5% | D: -2.0% | E: 0.3%

structure: CCOC(=O)c1ccc(NC2=CC(c3ccc(F)cc3)N(c3ccc(C(=O)OCC)cc3)C2=O)cc1 (stereo not given)
  A: 16.4µM* | B: 18.4µM* | C: x | D: 4.5% | E: -2.3%

structure: CCOC(=O)c1ccc(NC2=CC(c3ccc(Br)cc3)N(c3ccc(C(=O)OCC)cc3)C2=O)cc1 (stereo not given)
  A: x | B: x | C: x | D: -4.5% | E: -25.1%

structure: Nc1nc(SCC(=O)NC2CCCC2)[nH]c(=O)c1-c1ccccc1
  A: x | B: x | C: x | D: -1.8% | E: -2.1%

Next part:
Compound	TDP1 cell CPT	DT40 TDP1 no CPT	uPA generation	TDP1 block	miR-21 FLuc
Cc1cccc(C)c1NC(=O)C(C)N1CCCCC1 (stereo not given)	-0.8%	5.4%	-2.2%	2.9%	-0.7%
COc1ccccc1C(c1nnnn1C1CCCC1)N1CCN2CCCC2C1 (stereo not given)	-13.3%	-16.6%	-5.7%	7.3%	-4.1%
COc1ccc(CC(=O)Nc2ccc3nc(Nc4cccc(Cl)c4)cc(C)c3c2)cc1OC	18.4µM*	16.4µM*	x	6.2%	u
Cc1cc(Nc2cccc(Cl)c2)nc2ccc(NC(=O)Cc3cccc(C(F)(F)F)c3)cc12	9.2µM*	7.31µM*	x	8.7%	u
COc1ccc(Cl)cc1C(=O)Nc1cccnc1	3.2%	17.9%	4.2%	x	-11.6%
COc1ccc(CC(=O)Nc2ccc3nc(SC)sc3c2)cc1OC	-22.2%	u	2.5%	1.8%	1.1%
COc1ccc(Cl)cc1C(=O)Nc1ccc2nc(Nc3cccc(Cl)c3)cc(C)c2c1	20.6µM*	11.6µM*	x	0.0%	10.4%
Cc1cc(Nc2cccc(Cl)c2)nc2ccc(NC(=O)Cc3ccc(Cl)cc3)cc12	18.4µM*	u	x	-5.0%	u
O=C1CCCN1C(=O)CSc1nnnn1-c1cccc(F)c1	-3.5%	-18.3%	1.6%	-0.2%	x
COc1ccccc1C(=O)CN1C(=O)NC2(CCCCCC2)C1=O	-18.8%	-0.5%	7.1%	0.7%	x
CN(C)C(=S)SCC(=O)Nc1cccc(C(F)(F)F)c1	4.1%	5.9%	-8.8%	-1.9%	-22.7%
C[C@H]1CN([C@@H](C)CO)C(=O)Cc2cc(NC(=O)Cn3cnnn3)ccc2O[C@H]1CN(C)Cc1ccncc1	3.7%	-10.8%	5.3%	1.8%	x
C[C@H]1CN([C@@H](C)CO)C(=O)Cc2cc(NC(=O)CCN3CCOCC3)ccc2O[C@@H]1CN(C)Cc1ccc(Oc2ccccc2)cc1	23.1µM*	23.1µM*	-18.3%	4.6%	x
C[C@@H]1CN([C@H](C)CO)C(=O)Cc2cc(NC(=O)Cn3cnnn3)ccc2O[C@@H]1CN(C)Cc1ccc(Cl)c(Cl)c1	18.4µM*	u	10.2%	5.6%	x
C[C@H]1CN([C@@H](C)CO)C(=O)Cc2cc(NC(=O)C3CC3)ccc2O[C@H]1CN(C)Cc1ccc(Oc2ccccc2)cc1	u	u	u	5.2%	x
C[C@H](CO)N1C[C@H](C)[C@H](CN(C)Cc2ccc(-c3ccccc3)cc2)Oc2ccc(NS(=O)(=O)c3ccccc3)cc2CC1=O	16.4µM*	18.4µM*	u	3.6%	x

Five compounds picked at random from the list so far, as already listed:
Compound	TDP1 cell CPT	DT40 TDP1 no CPT	uPA generation	TDP1 block	miR-21 FLuc
C[C@H]1CN([C@@H](C)CO)C(=O)Cc2cc(NC(=O)Cn3cnnn3)ccc2O[C@H]1CN(C)Cc1ccncc1	3.7%	-10.8%	5.3%	1.8%	x
CN(C)C(=S)SCC(=O)Nc1cccc(C(F)(F)F)c1	4.1%	5.9%	-8.8%	-1.9%	-22.7%
C[C@@H]1CN([C@H](C)CO)C(=O)Cc2cc(NC(=O)Cn3cnnn3)ccc2O[C@@H]1CN(C)Cc1ccc(Cl)c(Cl)c1	18.4µM*	u	10.2%	5.6%	x
COc1ccccc1C(=O)CN1C(=O)NC2(CCCCCC2)C1=O	-18.8%	-0.5%	7.1%	0.7%	x
C[C@H]1CN([C@@H](C)CO)C(=O)Cc2cc(NC(=O)CCN3CCOCC3)ccc2O[C@@H]1CN(C)Cc1ccc(Oc2ccccc2)cc1	23.1µM*	23.1µM*	-18.3%	4.6%	x
